A word on the IC50: it is the midpoint of a concentration-inhibition curve. Low values mean inhibition by little substance, high ones a need for much substance.

The source of these data is patent publication EP2660249B1.

The target of this test is GLP-1R (glucagon-like peptide-1 receptor) of mouse pancreatic islets (mouse) (UniProt O35659). The experiment in a line: competition radioligand binding on mouse pancreatic islet cells; displacement of [125I] Bolton-Hunter labeled Exendin(9-39); filter separation, gamma counter.

For “(^127IB-PEG3)12-Ex4 (formula (33), SEQ ID NO. 33) (peptide)”, the IC50 amounted to 2.6 nM.

“(^127IB-PEG3)40-Ex4 (formula (34), SEQ ID NO. 34) (peptide)” returned an IC50 of 2.7 nM.
